{
  "source": "PubChem BioAssay AID602252",
  "about": "(Broad Institute, 2012)",
  "note": "The list shows a part of the results, in another mix than the full data. Activity calls are given as the source filed them.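 How the source made its calls: active means mean inhibition of at least 30% with at least half of replicates also reaching 30%; inconclusive means no clear call, values can overlap the other calls; inactive means the rest.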",
  "data": [
    {"target": "Golgi-associated PDZ and coiled-coil motif-containing protein (Homo sapiens) (UniProt Q9HD26)", "test": "untagged CAL PDZ binding inhibitors, primary screen, biochemical, fluorescence polarization, HTS (AID 602252);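 further: 0% = DMSO neutral control and 100% = excess unlabeled competitor peptide PRC23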", "conditions": "purified CAL PDZ, TMR-peptide fluorescence polarization, 1 h; at 24.9 µM; stronger effect = higher value", "values": [
      {"smiles": "Nc1ccc([As](=O)(O)c2ccc(N)cc2)cc1", "inhibition": "inactive: -1.34%"},
      {"smiles": "CCN(/C(=N/P(=O)(N1CCOCC1)N1CCOCC1)N1CCOCC1)c1ccc(OC)cc1", "inhibition": "inactive: -6.81%"},
      {"smiles": "O=C(Nc1cc([As](=O)(O)O)ccc1O)c1ccccc1", "inhibition": "inactive: -2.21%"},
      {"smiles": "O=P1(N(CCCl)CCCl)OCCCS1", "note": "(stereo not drawn)", "inhibition": "inactive: -2.75%"},
      {"smiles": "O=[N+]([O-])c1cccc(NC2=NCC(CBr)S2)c1", "note": "(stereo not drawn)", "inhibition": "inactive: -1.28%"},
      {"smiles": "COC(=O)C1(C)COP(=O)(Nc2ccccc2)OC1", "note": "(stereo not drawn)", "inhibition": "inactive: 14.8%"},
      {"smiles": "O=C(O)CNc1ccc([As](=O)(O)O)cc1", "inhibition": "inactive: -3.56%"},
      {"smiles": "CC(C)(C)C(=O)NC(Sc1ccncn1)C(Cl)(Cl)Cl", "note": "(stereo not drawn)", "inhibition": "inactive: 6.83%"},
      {"smiles": "O=[N+]([O-])c1ncn(CCn2ncnc2[N+](=O)[O-])n1", "inhibition": "inactive: -4.99%"},
      {"smiles": "C[C@H]1OP(=O)(Oc2ccccc2)[C@H](O)[C@H](O)[C@H]1N=[N+]=[N-]", "note": "(stereo partly drawn)", "inhibition": "inactive: -0.11%"},
      {"smiles": "O=P(Nc1nc2ccccc2s1)(c1ccccc1)c1ccccc1", "inhibition": "inactive: 0.344%"},
      {"smiles": "COc1ccc(N)c([N+](=O)[O-])c1[N+](=O)[O-]", "inhibition": "inactive: -1.49%"},
      {"smiles": "CN(C)C1(CNC(=O)c2ccc(Cl)c(S(N)(=O)=O)c2)CCCCC1", "inhibition": "inactive: -3.51%"},
      {"smiles": "O=P(Nc1ccccn1)(c1ccc(Br)cc1)c1ccc(Br)cc1", "inhibition": "inactive: 1.46%"},
      {"smiles": "Nc1ccc([As](=O)(O)c2ccc([N+](=O)[O-])cc2)cc1", "inhibition": "inactive: -0.562%"},
      {"smiles": "C(Cc1nn[nH]n1)Cc1nn[nH]n1", "inhibition": "inactive: 0.29%"},
      {"smiles": "O=C(OC1CN2CCC1CC2)c1cccc(Cl)c1", "note": "(stereo not drawn)", "inhibition": "inactive: -5.2%"},
      {"smiles": "CC(=O)NC(SC(=S)N(C)C)C(Cl)(Cl)Cl", "note": "(stereo not drawn)", "inhibition": "inactive: 3.58%"},
      {"smiles": "O=[N+]([O-])c1ccc(O)c(/C=N/Nc2ccc([N+](=O)[O-])cc2[N+](=O)[O-])c1", "inhibition": "inactive: -4.44%"},
      {"smiles": "O=[As](O)(c1ccccc1)c1ccc(O)cc1", "inhibition": "inactive: 5.12%"},
      {"smiles": "c1nnnn1CCn1cnnn1", "inhibition": "inactive: 3.17%"},
      {"smiles": "O=P(Nc1nccs1)(c1ccccc1)c1ccccc1", "inhibition": "inactive: -1.1%"},
      {"smiles": "CC(C)C(=O)NC(Sc1ccccc1)C(Cl)(Cl)Cl", "note": "(stereo not drawn)", "inhibition": "inactive: -4.62%"},
      {"smiles": "CC(C)(C)C(=O)NC(Sc1ccccc1)C(Cl)(Cl)Cl", "note": "(stereo not drawn)", "inhibition": "inactive: -7.33%"},
      {"smiles": "CCOc1ccc(C2=NCC(CBr)S2)cc1", "note": "(stereo not drawn)", "inhibition": "inactive: -3.95%"},
      {"smiles": "O=P1(Nc2nc3ccc(Cl)cc3s2)COc2ccccc2O1", "note": "(stereo not drawn)", "inhibition": "inactive: -0.34%"},
      {"smiles": "CC(=O)Nc1ccc([As](=O)(O)O)c(O)c1", "inhibition": "inactive: -0.669%"},
      {"smiles": "COC(=O)C1(C)COP(=O)(NCc2ccccc2)OC1", "note": "(stereo not drawn)", "inhibition": "inactive: -3.9%"},
      {"smiles": "N#C/C(=C\\c1ccc(N(CCBr)CCBr)cc1)C(N)=O", "inhibition": "inactive: -0.619%"},
      {"smiles": "CC(=O)c1ccc(N2CC2c2ccncc2)cc1", "note": "(stereo not drawn)", "inhibition": "inactive: -4.04%"},
      {"smiles": "C[C@@H]1C=CCP(=O)(Oc2ccccc2)O1", "note": "(stereo partly drawn)", "inhibition": "inactive: 2.41%"},
      {"smiles": "C[C@H]1OP(=O)(Oc2ccccc2)C[C@@H]2O[C@@H]21", "note": "(stereo partly drawn)", "inhibition": "inactive: -3.76%"},
      {"smiles": "O=P1(N(CCCl)CCCl)OCCC2CCCCN21", "note": "(stereo not drawn)", "inhibition": "inactive: -0.865%"},
      {"smiles": "O=C(NC1CCS(=O)(=O)C1)NP(=S)(Oc1ccccc1)Oc1ccccc1", "note": "(stereo not drawn)", "inhibition": "inactive: -4.29%"},
      {"smiles": "c1ccc(-c2nn[nH]n2)c(-c2nn[nH]n2)c1", "inhibition": "inactive: -4.86%"},
      {"smiles": "CN(C)C(=O)Oc1noc2ccccc12", "inhibition": "inactive: -0.639%"},
      {"smiles": "Cc1ccccc1OP(=O)(Nc1ccccn1)Oc1ccccc1C", "inhibition": "inactive: -0.482%"},
      {"smiles": "CC(NC(=O)COC(=O)C(O)(c1ccccc1)c1ccccc1)c1ccccc1", "note": "(stereo not drawn)", "inhibition": "inactive: -0.058%"},
      {"smiles": "CC(=O)NC(SC(=S)N(CC(C)C)CC(C)C)C(Cl)(Cl)Cl", "note": "(stereo not drawn)", "inhibition": "inactive: -5.67%"},
      {"smiles": "Cc1ccc(OP(=O)(Nc2ccccn2)Oc2ccc(C)cc2)cc1", "inhibition": "inactive: -1.14%"},
      {"smiles": "COC(=O)c1cc2c(s1)N=C(c1ccccc1)N(C)P2(=O)N1CCOCC1", "note": "(stereo not drawn)", "inhibition": "inactive: -3.36%"},
      {"smiles": "CCC(=O)N1C2C3N(C(=O)CC)C1C1N(C(=O)CC)C(C(N1C(=O)CC)N3C(=O)CC)N2C(=O)CC", "inhibition": "inactive: -5.59%"},
      {"smiles": "O=C(OC1CN2CCC1CC2)c1ccccc1", "note": "(stereo not drawn)", "inhibition": "inactive: -5.57%"}
    ]}
  ]
}
